Measured values reported in PubChem BioAssay (NCATS).
This is a selection; strong and weak results do not stand in their true shares. Inconclusive results are not listed. Calls of active or inactive are those of the source. The call rests on the fitted dose curve; in most records, active means well fitted curve in the direction sought with a large enough effect; inconclusive means small, poorly fitted or top-dose-only effect, or another doubt; inactive means no such curve, though single readings can be large; an effect the other way counts as inactive or inconclusive.

Assays:
[1] = MultiTox-Fluor Cytotoxicity Assay - LYMP1-001 - Dead Cells (AID 946); conditions: LYMP1-001 lymphoblastoid cells, dead-cell protease fluorescence; at 92.2 µM (top of the series);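 further: 0% = DMSO and 100% = tetraoctylammonium bromide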
Summary of the method: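 LYMP1-001 lymphoblastoid cells (2500/well) treated 16 h at 37 C. Dead-cell protease cleavage of bis-AAF-R110 read at Ex/Em 485/520. Normalized to DMSO and 15 uM tetraoctylammonium bromide; AC50 from Hill fits.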

[2] = MultiTox-Fluor Cytotoxicity Assay - LYMP1-001 - Live Cells (AID 947); conditions: LYMP1-001 lymphoblastoid cells, live-cell protease fluorescence viability; at 92.2 µM (top of the series);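 further: 0% = DMSO only and full inhibition = tetraoctylammonium bromide control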
[3] = Cell Viability - LYMP1-002 - Assay at 16 hr (AID 948); conditions: LYMP1-002 lymphoblastoid cell viability; at 92.2 µM (top of the series);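 further: 0% = DMSO alone and full effect = 92 µM tetraoctylammonium bromide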
Summary of the method: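 Seed 2500 LYMP1-002 cells per well in complete medium and hold 5 hr at 37 C. Add compound across a concentration series and incubate 16 hr at 37 C. Add CellTiter-Glo, wait 30 min at room temperature, read luminescence.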

[4] = MultiTox-Fluor Cytotoxicity Assay - LYMP1-002 - Live Cells (AID 955); conditions: LYMP1-002 lymphoblastoid live-cell protease fluorescence viability; at 46.1 µM (top of the series); further: on the % scale 0 is the no-effect control and ±100 the full control effect
Summary of the method: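 Human lymphoblastoid LYMP1-002 cells, 2500/well, treated 16 h at 37 C in complete medium. Live-cell protease activity via GF-AFC fluorescence (Ex/Em 405/510) after 60 min reagent incubation; AC50 from Hill fits.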

[5] = MultiTox-Fluor Cytotoxicity Assay - LYMP1-002 - Dead Cells (AID 960); conditions: LYMP1-002 lymphoblastoid cells, dead-cell protease fluorescence; at 46.1 µM (top of the series);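 further: 0% = DMSO and 100% = tetraoctylammonium bromide; nearly all actives have a fitted effect of over 60% in size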
Summary of the method: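 Human lymphoblastoid LYMP1-002 cells, 2500/well, treated 16 h at 37 C; dead-cell protease cleavage of bis-AAF-R110 read by fluorescence (485/520); normalized to DMSO and 15 uM tetraoctylammonium bromide; AC50 from Hill fit.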

[6] = MultiTox-Fluor Cytotoxicity Assay - LYMP1-003 - Dead Cells (AID 961); conditions: LYMP1-003 lymphoblastoid cells, dead-cell protease fluorescence; at 92.2 µM (top of the series);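 further: 0% = DMSO and 100% = tetraoctylammonium bromide; nearly all actives have a fitted effect of over 70% in size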
Summary of the method: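 LYMP1-003 human lymphoblastoid cells (2500/well) exposed to compound 16 h at 37 C in complete medium; dead-cell protease read with bis-AAF-R110 fluorescence (Ex/Em 485/520) after 60 min at room temperature. Normalized to DMSO and 15 uM tetraoctylammonium bromide; AC50 from Hill fit.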

[7] = MultiTox-Fluor Cytotoxicity Assay - LYMP1-003 - Live Cells (AID 962); conditions: LYMP1-003 lymphoblastoid cells, MultiTox-Fluor live-cell protease fluorescence; at 92.2 µM (top of the series);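 further: 0% = DMSO only and full loss = 92 µM tetraoctylammonium bromide; cytotoxic hits lower the live-cell protease signal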
Summary of the method: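 LYMP1-003 lymphoblastoid cells, 2500/well in complete medium, treated 16 h at 37 C; live-cell protease cleavage of GF-AFC read by fluorescence (Ex/Em 405/510) after 60 min reagent; AC50 from Hill fits of concentration-response.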

[8] = Cell Viability - LYMP1-003 - Assay at 24 hr (AID 963); conditions: LYMP1-003 lymphoblastoid cell viability; at 92.2 µM (top of the series);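 further: plate controls were DMSO only for no effect and tetraoctylammonium bromide positive control for full effect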
Summary of the method: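 Human lymphoblastoid LYMP1-003 cells, 2500/well, treated 24 h at 37 C in complete medium. Viability read as intracellular ATP by CellTiter-Glo luminescence after 30 min at room temperature; AC50 from Hill-equation fits of qHTS concentration-response.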

[9] = Cell Viability - LYMP1-003 - Assay at 40 hr (AID 964); conditions: LYMP1-003 lymphoblastoid viability; at 92.2 µM (top of the series); further: on the % scale 0 is the no-effect control and ±100 the full control effect; nearly all actives have a fitted effect of over 60% in size
Summary of the method: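 LYMP1-003 human lymphoblastoid cells, 2500/well, preincubated 5 h at 37 C, then treated with compound for 40 h at 37 C. Intracellular ATP read by CellTiter-Glo luminescence after 30 min at room temperature; AC50 from Hill-equation fits.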

[10] = Cell Viability - LYMP2-003 (AID 965); conditions: LYMP2-003 lymphoblastoid cell viability; at 92.2 µM (top of the series);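 further: cells exposed to compounds for 24 h before reading; 0% = DMSO only and full effect = 92 µM tetraoctylammonium bromide; nearly all actives have a fitted effect of over 50% in size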
Summary of the method: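 Seed 2500 lymphoblastoid cells/well; incubate 5 hr, 37 C; add compounds; incubate 24 hr, 37 C; add CellTiter-Glo, 30 min RT; read luminescence. AC50 from Hill fit.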

[11] = Cell Viability - LYMP2-004 (AID 966); conditions: LYMP2-004 lymphoblastoid cell viability, qHTS; at 92.2 µM (top of the series);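 further: plate controls were DMSO only for no effect and tetraoctylammonium bromide control for full effect; nearly all actives have a fitted effect of over 65% in size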
Summary of the method: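 Lymphoblastoid LYMP2-004 cells, 2500 per well, were preincubated for 5 hr and then treated with compound for 24 h at 37 C in complete medium. Viability was read as cellular ATP by CellTiter-Glo luminescence, and AC50 values were taken from Hill fits to concentration-response data.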

[12] = Cell Viability - LYMP2-005 (AID 967); conditions: LYMP2-005 lymphoblastoid cell viability; at 92.2 µM (top of the series);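 further: plate controls were DMSO only for no effect and 92 µM tetraoctylammonium bromide control for full effect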
Summary of the method: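 Acute cytotoxicity is scored as a concentration-dependent drop in intracellular ATP in human lymphoblastoid LYMP2-005 cells after 24 h compound treatment. ATP is quantified by luciferase luminescence, and AC50 is derived by Hill-equation modelling.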

[13] = Cell Viability - LYMP2-009 (AID 968); conditions: LYMP2-009 lymphoblastoid cell viability; at 92.2 µM (top of the series);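 further: 0% = DMSO alone and the full-kill end = tetraoctylammonium bromide at 92 µM; nearly all actives have a fitted effect of over 55% in size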
[14] = Cell Viability - LYMP2-011 (AID 969); conditions: LYMP2-011 lymphoblastoid cells viability; at 92.2 µM (top of the series);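 further: 0% = DMSO only and full inhibition = 92 µM tetraoctylammonium bromide; nearly all actives have a fitted effect of over 60% in size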
Summary of the method: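 2500 cells/well in complete medium, compound-treated 24 h at 37 C. Viability read as intracellular ATP by CellTiter-Glo luminescence after 30 min at room temperature. AC50 from Hill fits of qHTS concentration-response data.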

[15] = Cell Viability - LYMP2-013 (AID 970); conditions: LYMP2-013 lymphoblastoid cells viability; at 92.2 µM (top of the series);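 further: 0% = DMSO only and full inhibition = tetraoctylammonium bromide control; nearly all actives have a fitted effect of over 55% in size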
Summary of the method: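 Human lymphoblastoid LYMP2-013 cells, 2500/well, treated 24 h at 37 C in complete medium; viability as intracellular ATP by CellTiter-Glo luminescence after 30 min. AC50 from Hill fits of qHTS concentration-response.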

[16] = Cell Viability - LYMP2-015 (AID 971); conditions: LYMP2-015 lymphoblastoid cell viability; at 92.2 µM (top of the series);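 further: 0% = DMSO only and full effect = 92 µM tetraoctylammonium bromide; nearly all actives have a fitted effect of over 55% in size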
Summary of the method: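 LYMP2-015 human lymphoblastoid cells (2500/well) in complete medium, compound-treated 24 h at 37 C; viability read as cellular ATP by CellTiter-Glo luminescence after 30 min at room temperature. AC50 from Hill-equation fits of qHTS concentration-response data.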

[17] = Cell Viability - LYMP2-017 (AID 972); conditions: LYMP2-017 lymphoblastoid cell viability; at 92.2 µM (top of the series); further: on the % scale 0 is the no-effect control and ±100 the full control effect; nearly all actives have a fitted effect of over 55% in size
Summary of the method: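 LYMP2-017 human lymphoblastoid cells (2500/well) settled 5 hr at 37 C, then exposed to compound 24 hr at 37 C in complete medium. Viability taken as intracellular ATP by CellTiter-Glo luminescence after 30 min at RT; AC50 from Hill fits.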

Cc1ccc([N+](=O)[O-])cc1[N+](=O)[O-]
inactive: cytotoxicity (dead cells) [1] -11.7% | activity change, negative = cytotoxicity [2] -4.82% | activity change, negative = cytotoxicity [3] -6.46% | viability change, negative = cytotoxic [4] 9.74% | cytotoxicity (dead cells) [5] 2.11% | cytotoxicity (dead cells) [6] -9.43% | activity change, negative = fewer live cells [7] -2.7% | viability change, negative = cytotoxic [8] -4.52% | activity change, negative = cytotoxic [9] -16.7% | activity change, negative = cytotoxicity [10] 5.37% | activity change, negative = cytotoxicity [11] -4.93% | activity change, negative = viability loss [12] 4.89% | activity change, negative = viability loss [13] -14.1% | viability change, negative = cytotoxic [14] -5.77% | activity change, negative = cytotoxic [15] -2.64% | activity change, negative = lower viability [16] -8.21% | activity change, negative = cytotoxicity [17] -2.13%

O=[N+]([O-])[O-].[NH4+]
inactive: cytotoxicity (dead cells) [1] 2.76% | activity change, negative = cytotoxicity [2] 7.03% | activity change, negative = cytotoxicity [3] -0.442% | viability change, negative = cytotoxic [4] -1.41% | cytotoxicity (dead cells) [5] 8.24% | cytotoxicity (dead cells) [6] -9.7% | activity change, negative = fewer live cells [7] -0.794% | viability change, negative = cytotoxic [8] -1.13% | activity change, negative = cytotoxic [9] 0.414% | activity change, negative = cytotoxicity [10] 21.7% | activity change, negative = cytotoxicity [11] -10.8% | activity change, negative = viability loss [12] 28.2% | activity change, negative = viability loss [13] 1.15% | viability change, negative = cytotoxic [14] -1.13% | activity change, negative = cytotoxic [15] -12.8% | activity change, negative = lower viability [16] -5.12% | activity change, negative = cytotoxicity [17] 2.14%

Cc1cccc([N+](=O)[O-])c1[N+](=O)[O-]
inactive: cytotoxicity (dead cells) [1] 0.502% | activity change, negative = cytotoxicity [2] -19.6% | activity change, negative = cytotoxicity [3] -9.52% | viability change, negative = cytotoxic [4] 1.51% | cytotoxicity (dead cells) [6] 0.752% | activity change, negative = fewer live cells [7] -3.13% | viability change, negative = cytotoxic [8] -6.77% | activity change, negative = cytotoxic [9] -16.9% | activity change, negative = cytotoxicity [10] 6.98% | activity change, negative = cytotoxicity [11] -12.8% | activity change, negative = viability loss [12] 22.5% | activity change, negative = viability loss [13] -16.9% | viability change, negative = cytotoxic [14] -8.76% | activity change, negative = cytotoxic [15] -4.22% | activity change, negative = lower viability [16] -21.6% | activity change, negative = cytotoxicity [17] -14.6%

CCC(C)(OO)OOC(C)(CC)OO (stereo unspecified)
inactive: cytotoxicity (dead cells) [1] -10.3% | activity change, negative = cytotoxicity [2] 2.71% | activity change, negative = cytotoxicity [3] -1.42% | viability change, negative = cytotoxic [4] 7.86% | cytotoxicity (dead cells) [5] -3.45% | cytotoxicity (dead cells) [6] -1.4% | activity change, negative = fewer live cells [7] -4.76% | viability change, negative = cytotoxic [8] -3.57% | activity change, negative = cytotoxic [9] -11.3% | activity change, negative = cytotoxicity [10] -14% | activity change, negative = viability loss [12] -11.8% | activity change, negative = viability loss [13] -15.8% | viability change, negative = cytotoxic [14] -0.657% | activity change, negative = cytotoxic [15] -14.7%

Cc1ccc([N+](=O)[O-])c([N+](=O)[O-])c1
inactive: cytotoxicity (dead cells) [1] 11.1% | activity change, negative = cytotoxicity [3] -10.3% | viability change, negative = cytotoxic [4] 2.14% | cytotoxicity (dead cells) [5] 5.76% | cytotoxicity (dead cells) [6] 13.8% | activity change, negative = fewer live cells [7] -3.65% | viability change, negative = cytotoxic [8] -18.9%
